Test results taken from ChEMBL document CHEMBL4028816, “Discovery of a potent inhibitor of MELK that inhibits expression of the anti-apoptotic protein Mcl-1 and TNBC cell growth” (Bioorg Med Chem, 2017).
pIC50, pKi: −log10 of the molar value.

Chains of the proteins cited; added tags and fusions are not shown. Lines headed by an entry give the natural chain unless they say otherwise; changes in a name come on top.
UniProt Q14680: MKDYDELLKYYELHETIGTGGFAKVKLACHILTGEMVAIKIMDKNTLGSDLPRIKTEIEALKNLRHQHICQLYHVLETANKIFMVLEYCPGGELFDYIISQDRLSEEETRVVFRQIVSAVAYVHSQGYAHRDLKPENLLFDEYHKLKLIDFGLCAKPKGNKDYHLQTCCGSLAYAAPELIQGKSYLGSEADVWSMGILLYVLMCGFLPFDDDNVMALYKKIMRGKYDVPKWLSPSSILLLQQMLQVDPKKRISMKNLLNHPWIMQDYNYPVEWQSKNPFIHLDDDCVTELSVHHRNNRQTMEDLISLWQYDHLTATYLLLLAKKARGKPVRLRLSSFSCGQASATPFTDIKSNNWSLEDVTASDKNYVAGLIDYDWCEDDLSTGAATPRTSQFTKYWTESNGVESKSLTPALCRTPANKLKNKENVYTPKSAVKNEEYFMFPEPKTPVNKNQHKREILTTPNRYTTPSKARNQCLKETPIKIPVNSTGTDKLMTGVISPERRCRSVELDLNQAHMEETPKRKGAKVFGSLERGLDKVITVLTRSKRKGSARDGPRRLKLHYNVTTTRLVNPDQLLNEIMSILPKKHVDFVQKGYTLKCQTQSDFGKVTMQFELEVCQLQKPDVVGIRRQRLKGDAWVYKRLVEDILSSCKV

Molecular target: Maternal embryonic leucine zipper kinase (Homo sapiens, UniProt Q14680)
Experiment: Inhibition of His6-tagged MELK catalytic domain (1 to 340 residues) (unknown origin) expressed in Escherichia coli BL21 (DE3) cells using Bcl-GL as substrate measured after 30 mins in presence of [gamma32P]ATP by liquid scintillation counting method

CN1CCN(CC(=O)N(C)c2ccc(N/C(=C3\C(=O)Nc4ccc(C(=O)N(C)C)cc43)c3ccccc3)cc2)CC1
pIC50: 7.17
pKi: 8.06
